Data from ChEMBL document CHEMBL5726454, “Protein tyrosine kinase modulators and methods of use” (2017).

By UniProt entry, the sequences of proteins in these tests, tags left out. Where a name states a change or a piece, a line headed by the entry shows the natural chain unless it says otherwise.
UniProt P00533, whole entry: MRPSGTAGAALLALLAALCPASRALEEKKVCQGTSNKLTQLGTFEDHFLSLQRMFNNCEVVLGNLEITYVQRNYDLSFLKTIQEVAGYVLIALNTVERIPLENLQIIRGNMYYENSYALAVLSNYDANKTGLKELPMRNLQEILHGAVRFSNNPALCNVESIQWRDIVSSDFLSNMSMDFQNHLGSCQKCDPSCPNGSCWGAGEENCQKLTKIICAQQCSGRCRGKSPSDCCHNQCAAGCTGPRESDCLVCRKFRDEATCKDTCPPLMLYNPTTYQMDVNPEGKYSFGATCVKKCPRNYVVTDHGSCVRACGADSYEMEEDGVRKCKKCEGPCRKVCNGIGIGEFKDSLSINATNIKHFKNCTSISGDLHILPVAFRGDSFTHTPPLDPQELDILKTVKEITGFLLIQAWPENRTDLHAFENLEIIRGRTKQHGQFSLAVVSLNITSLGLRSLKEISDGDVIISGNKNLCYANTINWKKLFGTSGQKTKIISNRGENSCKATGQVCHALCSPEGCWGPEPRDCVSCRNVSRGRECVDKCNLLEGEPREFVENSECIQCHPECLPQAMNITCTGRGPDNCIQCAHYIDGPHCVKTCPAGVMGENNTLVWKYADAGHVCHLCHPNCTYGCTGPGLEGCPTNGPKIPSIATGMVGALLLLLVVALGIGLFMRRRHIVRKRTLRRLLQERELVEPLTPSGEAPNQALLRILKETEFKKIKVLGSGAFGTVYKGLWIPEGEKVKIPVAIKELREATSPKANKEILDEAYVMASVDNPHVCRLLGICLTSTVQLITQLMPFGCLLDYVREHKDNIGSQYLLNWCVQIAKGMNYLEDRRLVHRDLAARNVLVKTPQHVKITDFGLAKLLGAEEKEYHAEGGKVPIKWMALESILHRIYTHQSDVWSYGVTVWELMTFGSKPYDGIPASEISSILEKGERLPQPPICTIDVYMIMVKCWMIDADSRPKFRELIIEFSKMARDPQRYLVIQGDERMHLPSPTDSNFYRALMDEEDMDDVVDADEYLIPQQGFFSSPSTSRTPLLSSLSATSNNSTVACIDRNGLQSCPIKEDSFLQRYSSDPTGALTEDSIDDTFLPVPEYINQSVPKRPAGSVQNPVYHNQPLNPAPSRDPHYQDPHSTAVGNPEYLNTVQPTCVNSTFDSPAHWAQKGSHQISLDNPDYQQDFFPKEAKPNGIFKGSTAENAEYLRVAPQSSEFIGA
UniProt Q9UM73: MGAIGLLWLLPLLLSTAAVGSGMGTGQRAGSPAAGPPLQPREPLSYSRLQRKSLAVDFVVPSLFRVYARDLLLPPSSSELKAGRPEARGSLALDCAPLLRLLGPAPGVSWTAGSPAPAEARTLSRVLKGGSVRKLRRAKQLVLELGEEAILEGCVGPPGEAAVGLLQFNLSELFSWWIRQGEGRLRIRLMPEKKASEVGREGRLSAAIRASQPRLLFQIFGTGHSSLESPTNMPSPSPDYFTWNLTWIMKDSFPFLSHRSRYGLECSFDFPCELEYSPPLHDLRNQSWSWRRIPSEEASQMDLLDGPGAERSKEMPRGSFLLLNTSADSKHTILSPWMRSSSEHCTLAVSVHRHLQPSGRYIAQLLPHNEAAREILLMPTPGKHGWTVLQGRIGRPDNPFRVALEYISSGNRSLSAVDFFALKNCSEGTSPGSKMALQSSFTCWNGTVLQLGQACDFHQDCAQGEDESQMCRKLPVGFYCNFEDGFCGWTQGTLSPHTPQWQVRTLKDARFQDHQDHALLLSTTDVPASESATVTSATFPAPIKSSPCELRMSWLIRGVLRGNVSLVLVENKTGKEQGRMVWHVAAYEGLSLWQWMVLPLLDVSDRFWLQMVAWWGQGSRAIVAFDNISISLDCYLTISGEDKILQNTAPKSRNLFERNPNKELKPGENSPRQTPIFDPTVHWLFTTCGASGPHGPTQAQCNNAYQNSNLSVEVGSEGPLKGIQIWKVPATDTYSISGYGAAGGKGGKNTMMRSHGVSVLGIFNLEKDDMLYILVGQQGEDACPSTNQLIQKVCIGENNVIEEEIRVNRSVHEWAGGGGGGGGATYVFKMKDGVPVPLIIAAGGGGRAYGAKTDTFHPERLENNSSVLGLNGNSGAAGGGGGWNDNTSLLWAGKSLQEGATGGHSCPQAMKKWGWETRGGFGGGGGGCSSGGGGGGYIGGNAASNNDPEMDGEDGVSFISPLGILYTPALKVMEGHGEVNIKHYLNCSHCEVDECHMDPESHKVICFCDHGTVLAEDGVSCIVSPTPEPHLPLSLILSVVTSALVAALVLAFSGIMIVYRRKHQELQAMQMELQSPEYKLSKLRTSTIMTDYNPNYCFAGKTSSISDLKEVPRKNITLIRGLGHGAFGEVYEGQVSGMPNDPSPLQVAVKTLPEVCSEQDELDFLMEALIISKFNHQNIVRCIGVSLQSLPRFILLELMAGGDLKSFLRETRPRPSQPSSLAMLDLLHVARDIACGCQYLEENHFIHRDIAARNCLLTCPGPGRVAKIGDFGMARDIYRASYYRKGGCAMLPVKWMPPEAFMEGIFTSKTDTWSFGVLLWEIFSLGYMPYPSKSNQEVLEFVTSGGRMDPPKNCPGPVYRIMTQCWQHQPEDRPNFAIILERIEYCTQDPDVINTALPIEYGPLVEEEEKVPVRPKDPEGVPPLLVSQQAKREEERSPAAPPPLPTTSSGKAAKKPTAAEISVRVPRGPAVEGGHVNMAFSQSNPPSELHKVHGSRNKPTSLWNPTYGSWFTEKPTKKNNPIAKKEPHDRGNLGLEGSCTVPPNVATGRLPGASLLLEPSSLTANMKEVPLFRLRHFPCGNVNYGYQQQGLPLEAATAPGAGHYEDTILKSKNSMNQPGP

Key:
[1] = molecular target: Epidermal growth factor receptor (Homo sapiens, UniProt P00533)
[2] = molecular target: ALK tyrosine kinase receptor (Homo sapiens, UniProt Q9UM73); test: 2.5 uL-4x Test Compound or 100 nL 100x plus 2.4 uL kinase buffer; 2. 5 uL-2x Peptide/Kinase Mixture; 3. 2.5 uL-4xATP Solution; 4. 30-second plate shake; 5. 60-minute Kinase Reaction incubation at room temperature; 6. 5 uL-Development Reagent Solution; 7. 30-second plate shake; 8. 60-minute Development Reaction incubation at room temperature; 9. […] After the 1 hour Kinase Reaction incubation, 5 uL of a 1:256 dilution of Development Reagent B is added.

Row | SMILES | IC50 [1] [nM] | IC50 [2] [nM]
1 | C=CC(=O)Nc1cc(Nc2ncc(Cl)c(Nc3ccccc3C(=O)C(=O)N(C)C)n2)c(OC)cc1N1CCN(C)CC1 | 513 | 9.33
2 | C=CC(=O)Nc1cc(Nc2ncc(Cl)c(Nc3ccccc3C(=O)C(=O)N(C)C)n2)ccc1OCCN(C)C |  | 8.62
